Laboratory results from patent publication US10894048B2, “Antitumor drug for intermittent administration of FGFR inhibitor” (priority 2013, dated 2021).
Like-named read-outs stand apart in the source and are kept apart here.

Legend:
[1] = female SD rats
[2] = nude mice

## C=CC(=O)N1CC[C@H](n2nc(C#Cc3cc(OC)cc(OC)c3)c3c(N)ncnc32)C1 [Ex. Compound 2, (S)-1-(3-(4-amino-3-((3,5-dimethoxyphenyl)ethynyl)-1H-pyrazolo[3,4-d]pyrimidin-1-yl)pyrrolidin-1-yl)prop-2-en-1-one]
[1]; 15 mg/kg/day 14-day daily administration
  body weight change: body weight gain was suppressed
[1]; 30 mg/kg/day 8-day daily administration
  body weight change: body weight loss was observed
[1]; all intermittent administration groups
  body weight change: body weight gain was observed
[2]; 100 mg/kg/day daily
  body weight change: body weight loss was observed
  mortality: one case died
[2]; 350 mg/kg/day twice a week
  body weight change: body weight changes similar to that of the control group
[2]; 700 mg/kg/day once a week
  body weight change: body weight changes similar to that of the control group
